Assay results taken from ChEMBL document CHEMBL1134951, “Substituted uracil derivatives as potent inhibitors of poly(ADP-ribose)polymerase-1 (PARP-1)” (Bioorg Med Chem Lett, 2002).

The chains behind the UniProt entries cited, without tags or fusion partners.
UniProt P09874, whole entry: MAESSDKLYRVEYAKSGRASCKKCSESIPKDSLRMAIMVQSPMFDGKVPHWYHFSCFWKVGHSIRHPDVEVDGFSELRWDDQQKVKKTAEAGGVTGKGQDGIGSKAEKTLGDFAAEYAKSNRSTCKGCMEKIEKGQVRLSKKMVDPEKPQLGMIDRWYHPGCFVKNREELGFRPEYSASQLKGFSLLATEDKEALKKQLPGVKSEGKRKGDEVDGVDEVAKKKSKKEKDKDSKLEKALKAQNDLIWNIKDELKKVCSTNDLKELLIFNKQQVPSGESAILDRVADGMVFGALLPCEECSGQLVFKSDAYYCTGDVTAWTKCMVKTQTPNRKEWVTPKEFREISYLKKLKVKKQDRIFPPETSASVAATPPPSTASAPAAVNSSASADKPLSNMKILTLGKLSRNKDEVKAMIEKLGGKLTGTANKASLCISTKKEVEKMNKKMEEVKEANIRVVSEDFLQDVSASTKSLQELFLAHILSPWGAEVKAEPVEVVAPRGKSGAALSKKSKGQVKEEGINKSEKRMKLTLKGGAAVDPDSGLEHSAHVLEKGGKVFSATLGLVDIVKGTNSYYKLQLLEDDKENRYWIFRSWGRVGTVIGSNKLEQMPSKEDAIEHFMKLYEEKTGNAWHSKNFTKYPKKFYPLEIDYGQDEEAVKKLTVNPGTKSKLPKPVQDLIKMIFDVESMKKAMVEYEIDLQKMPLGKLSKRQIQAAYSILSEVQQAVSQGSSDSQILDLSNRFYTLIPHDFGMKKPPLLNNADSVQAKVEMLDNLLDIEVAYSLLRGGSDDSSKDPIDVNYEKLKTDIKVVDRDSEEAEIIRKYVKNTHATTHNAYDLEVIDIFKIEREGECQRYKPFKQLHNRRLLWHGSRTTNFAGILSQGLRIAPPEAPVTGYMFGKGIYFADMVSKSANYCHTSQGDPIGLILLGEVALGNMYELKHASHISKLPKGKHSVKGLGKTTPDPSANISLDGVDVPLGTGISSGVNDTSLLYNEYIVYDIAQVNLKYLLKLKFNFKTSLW

Target: Poly [ADP-ribose] polymerase 1 (Homo sapiens, UniProt P09874)
Experiment: Inhibitory activity against human recombinant PARP-1

O=C(CCn1c2c(c(=O)[nH]c1=O)CCCC2)NCC(=O)c1ccc2ccccc2c1
IC50: 25 nM
